Test results: US20060263427A1, “Quinine formulations” (priority 2005, published 2006)

Details: Study 2, C: 324 mg capsule, fasting; 0 hours

C=C[C@H]1C[N@@]2CC[C@H]1C[C@H]2[C@H](O)c1ccnc2ccc(OC)cc12 [Quinine Sulfate, cinchonan-9-ol, 6′-methoxy-, (8α,9R)-, sulfate (2:1)]
QTc: 404 ms

Counter-ions that a name gives are not always drawn.
